Tested on: mammary tumor cells from the 13762 tumor cell line
Settings: single dose of 100 mg DZ equivalent/rat, i.v.; breast tumor-bearing rat; FIG. 7

Ethylenedicysteine-Oligosaccharide-Diatrizoate [EC-OS-DZ]
uptake on x-ray compared to contrast media (DZ): sustained uptake
